High-throughput results: PubChem BioAssay, National Center for Advancing Translational Sciences (NCATS)
In the library only some 16% were active in any assay of this set; here they are far more common.
DT40 TDP1 CPT – growth inhibition of DT40 Tdp1-/-;hTDP1 cells with camptothecin (screen for TDP1 inhibitors); chicken DT40 Tdp1-/-;hTDP1 cells + 20 nM CPT, ATP luminescence, 48 h; Potency, µM (series often up to 46.2 µM), for the others: at the highest dose activity change, negative = growth inhibition, usual class: inhibitors; 420,000 tested, 12% active; AID 686979; note: potency is the fitted concentration of half-maximal effect; % is set by controls: 0 for no effect and ±100 for the full control effect; nearly all actives have a fitted effect of over 55% in size
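Chicken DT40 Tdp1-/- cells complemented with human TDP1, 400 cells/well, exposed to compounds plus 20 nM camptothecin for at least 48 h at 37 C; viability read as ATP content by CellTiter-Glo luminescence.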
uPA generation – cell surface uPA generation inhibition; cell surface uPA generation assay, qHTS; Potency, µM (titrated, usually from 38.3 µM), without a hit: at the top dose activity change, negative = inhibition, most hits filed as inhibitors; 330,000 tested, 0.31% active; AID 540303; active = well fitted inhibition curve with a large enough effect; inconclusive = small, poorly fitted or top-dose-only effect; inactive = no such curve, though single readings can be large or run the other way; tested in mouse RAW 264.7 cells; note: potency is the fitted concentration of half-maximal effect; % is set by controls: 0 for no effect and ±100 for the full control effect; nearly all actives have a fitted effect of over 55% in size
TDP1 block – inhibitors of human tyrosyl-DNA phosphodiesterase TDP1. Q9NUW8. recombinant TDP1, AlphaScreen DNA substrate cleavage. AID 485290. 350,000 tested, 0.28% active. Potency, µM (top dose mostly 130 µM), for inactives: at the top dose activity change, negative = inhibition, most hits filed as inhibitors; note: potency is the fitted concentration of half-maximal effect; % is set by controls: 0 for no effect and ±100 for the full control effect; nearly all actives have a fitted effect of over 40% in size
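Signal: AlphaScreen proximity between streptavidin donor and anti-FITC acceptor beads on intact substrate. Reaction: Tdp1 1 nM, substrate 15 nM final, 5 min RT after 15 min compound preincubation.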
miR-21 reporter – raises the signal of a miR-21 reporter | HeLa miR-21 FLuc reporter, luciferase, 48 h | Potency, µM (doses to about 38.3 µM), for the others: at the highest dose reporter change, positive = more light | 340,000 tested, under 10 active | AID 2288; active = well fitted rising curve with a large enough effect; inconclusive = small, poorly fitted or top-dose-only effect; inactive = no such curve, though single readings can be large or run the other way;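 also: % of control where 0% means no effect; miR-21 action dims this reporter so a rising signal means less miR-21 action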
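HeLa miR-21-FLuc reporter line, endogenous miR-21; 2000 cells/well in DMEM/10% FBS; compound titration up to ~40uM final, 48 h, 37 degree Celsius; luciferase detection reagent, 15 min lysis, CCD luminescence.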
TDP1 cell noCPT – qHTS for Inhibitors of human tyrosyl-DNA phosphodiesterase 1 (TDP1): qHTS in cells in absence of CPT | AID 686978, 2013 | DT40 Tdp1-/- hTDP1 cells, no CPT, ATP luminescence, 48 h | Potency, µM (doses to about 46.2 µM), without a hit: at the top dose activity change, negative = growth inhibition, usual class: inhibitors | 420,000 tested, 15% active; note: potency is the fitted concentration of half-maximal effect; % is set by controls: 0 for no effect and ±100 for the full control effect; nearly all actives have a fitted effect of over 55% in size
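A cellular qHTS used chicken DT40 cells lacking endogenous Tdp1 but carrying stably transfected human TDP1. Compounds were applied without camptothecin, and cell growth kinetics were judged by ATP-dependent luminescence after ≥48 hr.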
Starred values were filed as active, the others as inactive; ? = inconclusive; · = no result given; [ ] = remark or other dose. Unless noted, calls come from the whole dose curve; as a rule, active = well fitted curve in the direction sought with a large enough effect; inconclusive = small, poorly fitted or top-dose-only effect, or another doubt; inactive = no such curve, though single readings can be large; an effect the other way counts as inactive or inconclusive.

A first look:
1. N#C/C(=C\Nc1ccc2cn[nH]c2c1)c1nc(-c2ccc(Cl)cc2)cs1
2. N#C/C(=C/c1ccc(O)cc1)c1nc(-c2ccc(-c3ccccc3)cc2)cs1
3. N#C/C(=C/c1ccc(Cl)cc1)c1nc(-c2ccc(Br)cc2)cs1

assay / compound,1,2,3
DT40 TDP1 CPT,?,?,2%
uPA generation,-4%,·,·
TDP1 block,4%,2%[12.3 µM],4%[12.3 µM]
miR-21 reporter,-4%,-56%,0%
TDP1 cell noCPT,23µM*,?,-21%

This part in full, from the first entry:
1. N#C/C(=C\Nc1ccc2cn[nH]c2c1)c1nc(-c2ccc(Cl)cc2)cs1
2. N#C/C(=C/c1ccc(O)cc1)c1nc(-c2ccc(-c3ccccc3)cc2)cs1
3. N#C/C(=C/c1ccc(Cl)cc1)c1nc(-c2ccc(Br)cc2)cs1
4. N#C/C(=C\Nc1ccc2cn[nH]c2c1)c1nc(-c2ccccc2)cs1
5. Cc1cccc(N2CC(O)(c3cccs3)[N+]3=C2CCCC3)c1C (stereo unspecified)
6. Cc1ccccc1N1CC(O)(c2cccs2)[N+]2=C1CCCC2 (stereo unspecified)
7. C=CCN1C(=O)C2(NC(=O)c3ccccc3N2)c2ccccc21 (stereo unspecified)
8. C=CCN1C(=O)C2(NNc3ccccc3O2)c2ccccc21 (stereo unspecified)

assay / compound,1,2,3,4,5,6,7,8
DT40 TDP1 CPT,?,?,2%,?,?,15%,18µM*,6.5µM*
uPA generation,-4%,·,·,-2%,-3%,7%,-10%,-8%
TDP1 block,4%,2%[12.3 µM],4%[12.3 µM],7%,-2%,0%,5%,11%
miR-21 reporter,-4%,-56%,0%,-10%,-2%,0%,21%,-9%
TDP1 cell noCPT,23µM*,?,-21%,16µM*,21µM*,2%,?,8.2µM*

9. Cc1ncc(CO)c2c1Oc1nc(-c3ccc(F)cc3)nc(SCc3ccc(F)cc3Cl)c1C2
10. CCCCc1ccc(C(=O)Nc2ccc3nc(N4CCN(CC)CC4)cc(C)c3c2)cc1
11. CCN1CCN(c2cc(C)c3cc(NC(=O)c4cc(OC)cc(OC)c4)ccc3n2)CC1
12. CCOc1ccc(C(=O)Nc2ccc3nc(N4CCN(CC)CC4)cc(C)c3c2)cc1
13. CCN1CCN(c2cc(C)c3cc(NC(=S)N(CC)CC)ccc3n2)CC1
14. CCN1CCN(c2cc(C)c3cc(NC(=O)Cc4ccc(OC)c(OC)c4)ccc3n2)CC1
15. CC(C)C(NC(=O)c1ccc(F)cc1)C(=O)NCC1CCCO1 (stereo unspecified)
16. COc1ccc(-c2nc(CSc3nncn4c3cc3sccc34)c(C)o2)cc1OC

assay / compound,9,10,11,12,13,14,15,16
DT40 TDP1 CPT,17%,3.7µM*,?,?,?,-18%,-14%,1.8µM*
uPA generation,·,·,-11%,4%,-2%,-16%,-1%,·
TDP1 block,-10%,3%,4%,·,-2%,1%,3%,0%
miR-21 reporter,1%,1%,-24%,-13%,5%,-7%,-1%,-6%
TDP1 cell noCPT,-8%,2.9µM*,16µM*,26µM*,?,-15%,-12%,2.6µM*

17. Cc1cccc(-c2nc(CSc3nncn4c3cc3sccc34)c(C)o2)c1
18. CC(=O)N1CCN(c2nc(-c3ccco3)c3c(c2C#N)CC(C)(C)SC3)CC1
19. CC1(C)Cc2c(C#N)c(N3CCN(C(=O)c4ccco4)CC3)nc(-c3ccco3)c2CS1
20. CC1(C)Cc2c(C#N)c(SCC(=O)c3ccccc3)nc(N3CCOCC3)c2CS1
21. CCC(Cc1ccccc1)NC(=O)/C=C/c1ccco1 (stereo unspecified)
22. Cn1c(SCc2ccc(Br)cc2)nc2ccccc2c1=O
23. Cn1c(SCC#N)nc2ccccc2c1=O
24. Cc1cccc(CSc2nc3ccccc3c(=O)n2C)c1

assay / compound,17,18,19,20,21,22,23,24
DT40 TDP1 CPT,-96%,?,-30%,?,-11%,?,19%,?
uPA generation,·,-3%,-8%,4%,-3%,0%,-4%,-24%
TDP1 block,0%,-5%,0%,8%,·,·,0%,·
miR-21 reporter,-2%,2%,-6%,0%,-7%,1%,-1%,·
TDP1 cell noCPT,?,23µM*,?,16µM*,?,12µM*,-22%,18µM*

25. O=S(=O)(Nc1nc(CN2CCOCC2)nc2sc3c(c12)CCCC3)c1cc(F)ccc1F
26. COc1cc2ccccc2cc1C(=O)Nc1ccc2oc(-c3cccc(C)c3)nc2c1
27. COc1ccc(C(=O)/C=C2\Sc3ccccc3N2C)cc1
28. CC(=S)/C=C1\Sc2ccccc2N1C
29. O=C(Nc1cccc(/C=C/c2ccccn2)c1)c1ccc(-n2cncn2)cc1

assay / compound,25,26,27,28,29
DT40 TDP1 CPT,17%,?,-3%,15µM*,?
uPA generation,1%,·,-12%,-3%,-4%
TDP1 block,2%,0%[12.3 µM],-8%,5%,0%
miR-21 reporter,-2%,-6%,-35%,-3%,·
TDP1 cell noCPT,-15%,?,?,23µM*,?
